Values of other authors, collected in article PMC3953223 (Biochemistry, 2013).

Biological target: PfENR
Details: read-out: Kd, triclosan binding to PfENR; 250 µM NAD^+; cited from earlier work

SMILES: Oc1cc(Cl)ccc1Oc1ccc(Cl)cc1Cl [Triclosan, triclosan]
- Kd: 32 nM
